Laboratory results taken from patent publication US8026252B2 (priority 2005, dated 2011).
“And” between values parts separate entries of the source, which are not always exact repeats. Equal entries are not always repeated.

Amino acid sequences for entries named in this document (tags omitted).
UniProt P35372, whole entry: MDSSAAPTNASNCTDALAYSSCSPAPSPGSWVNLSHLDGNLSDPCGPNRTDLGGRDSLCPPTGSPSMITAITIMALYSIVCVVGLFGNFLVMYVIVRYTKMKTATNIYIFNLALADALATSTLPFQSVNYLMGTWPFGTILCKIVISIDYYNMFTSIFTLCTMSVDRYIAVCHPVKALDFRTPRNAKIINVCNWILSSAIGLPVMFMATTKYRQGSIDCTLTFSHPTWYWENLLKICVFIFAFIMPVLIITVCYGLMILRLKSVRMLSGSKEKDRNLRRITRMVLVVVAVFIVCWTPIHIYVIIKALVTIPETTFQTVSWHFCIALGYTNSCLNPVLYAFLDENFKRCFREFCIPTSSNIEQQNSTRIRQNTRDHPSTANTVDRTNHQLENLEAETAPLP

Target: T1, human μ opioid receptor (Homo sapiens, UniProt P35372)
T1 construct: expressed in transfected cells
Format: binding
Details: read-out: [3H]DAMGO (μ)

(+)-3-(Cyclopropylmethyl)-1,2,3,4,5,6-hexahydro-cis-6,11-dimethyl-N-(2-[1,1′-biphenyl]-4-ylethyl)-2,6-methano-3-benzazocine-8-carboxamide [Example 17]
Ki: 7.8 nM and 6.4 nM

(±)-3-(Cyclopropylmethyl)-1,2,3,4,5,6-hexahydro-cis-6,11-dimethyl-N-(2-[1,1′-biphenyl]-4-ylethyl)-2,6-methano-3-benzazocine-8-carboxamide [Example 15]
Ki: 0.048 ± 0.0014 nM
